Each structure is given as a SMILES string.

Assay [1] is described as follows: Selectivity ratio of IC50 for PDE6C (unknown origin) to IC50 for PDE4D (unknown origin).
Assay [2] can be described thus: Selectivity ratio of IC50 for PDE5A (unknown origin) to IC50 for PDE4D (unknown origin).
Assay [3] can be described thus: Selectivity ratio of IC50 for PDE3A (unknown origin) to IC50 for PDE4D (unknown origin).
Assay [4] in a line: Selectivity ratio of IC50 for PDE1A (unknown origin) to IC50 for PDE4D (unknown origin).
Assay [5] in a line: Selectivity ratio of IC50 for PDE8A (unknown origin) to IC50 for PDE4D (unknown origin).
A short description of assay [6]: Selectivity ratio of IC50 for PDE2A (unknown origin) to IC50 for PDE4D (unknown origin).
The nature of assay [7]: Selectivity ratio of IC50 for PDE9A (unknown origin) to IC50 for PDE4D (unknown origin).
A short description of assay [8]: Selectivity ratio of IC50 for PDE10A (unknown origin) to IC50 for PDE4D (unknown origin).
Assay [9] is described as follows: Selectivity ratio of IC50 for PDE7A (unknown origin) to IC50 for PDE4D (unknown origin).
A short description of assay [10]: Selectivity ratio of IC50 for PDE11A (unknown origin) to IC50 for PDE4D (unknown origin).

Turning to `Cn1c(=O)c2c(ncn2CCC(=O)NNC(=O)c2cc3nccc(-c4ccc(OC(F)F)c(OCC5CC5)c4)n3n2)n(C)c1=O`, the Ratio IC50 in [1] is above 1700; in [2], above 1700; in assay [3], above 1700; in assay [4] it was above 1700; in assay [5], above 50; in assay [6] it was above 1700. The Ratio IC50 in [7] is above 1700; in assay [8], above 30; in [9], above 520; in assay [10], above 1700.

For the origin of these results see ChEMBL document CHEMBL6178016, “Design, Synthesis, and Biological Evaluation of New PDE4 Inhibitors for the Treatment of Pressure Ulcers” (J Med Chem, 2025).
